Literature values in patent US20060201053A1, “Barrier preventing wood pest access to wooden structures” (priority 2000, published 2006).

Test system: Reticulitermes flavipes
Details: cited from earlier work

Compound: CC1(C)[C@H](C(=O)O[C@H](C#N)c2cccc(Oc3ccccc3)c2)[C@@H]1/C=C(\Cl)C(F)(F)F (racemic) [Lambda cyhalothrin]
- lethal concentration that kills 99 percent of test termites (LC99): 0.0001 μg/termite
